From article PMC11272584 (Nature Metabolism, 2024)
Numbering of substitutions follows the chain as printed.

Columns and labels:
GIPR S415I = molecular target: T1, GIPR S415I (Homo sapiens, UniProt P48546, S415I); assay: cAMP accumulation; assay type: cell-based; set-up: host or cells: HEK293
T1 sequence (P48546 22-466 S415I): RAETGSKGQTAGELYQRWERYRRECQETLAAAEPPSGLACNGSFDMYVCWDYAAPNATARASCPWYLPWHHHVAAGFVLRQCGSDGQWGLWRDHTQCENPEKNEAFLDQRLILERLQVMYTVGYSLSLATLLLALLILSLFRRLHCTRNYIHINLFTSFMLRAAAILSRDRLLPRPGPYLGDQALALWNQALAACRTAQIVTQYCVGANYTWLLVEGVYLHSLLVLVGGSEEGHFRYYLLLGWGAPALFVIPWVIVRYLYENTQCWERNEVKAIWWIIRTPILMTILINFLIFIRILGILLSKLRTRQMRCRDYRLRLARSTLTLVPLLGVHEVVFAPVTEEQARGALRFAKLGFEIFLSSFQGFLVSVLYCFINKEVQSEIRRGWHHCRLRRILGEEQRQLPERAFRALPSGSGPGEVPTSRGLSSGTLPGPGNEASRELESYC

GIPR R38L = molecular target: T2, GIPR R38L (Homo sapiens, UniProt P48546, R38L); assay: cAMP accumulation; assay type: cell-based; set-up: host or cells: HEK293
T2 sequence (P48546 22-466 R38L): T1 sequence (P48546 22-466 S415I) with R17L, I394S

GIPR E463Q = molecular target: T3, GIPR E463Q (Homo sapiens, UniProt P48546, E463Q); assay: cAMP accumulation; assay type: cell-based; set-up: host or cells: HEK293
T3 sequence (P48546 22-466 E463Q): T1 sequence (P48546 22-466 S415I) with I394S, E442Q

GIPR I221M = molecular target: T4, GIPR I221M (Homo sapiens, UniProt P48546, I221M); assay: cAMP accumulation; assay type: cell-based; set-up: host or cells: HEK293
T4 sequence (P48546 22-466 I221M): T1 sequence (P48546 22-466 S415I) with I200M, I394S

GIPR E288G = molecular target: T5, GIPR E288G (Homo sapiens, UniProt P48546, E288G); details: GIPR E288G (ECL2), mean, n = 5, duplicate
T5 sequence (P48546 22-466 E288G): T1 sequence (P48546 22-466 S415I) with E267G, I394S

GIPR W90Lfs*17 = assay: cAMP accumulation; assay type: cell-based, human; details: HEK293, Hill slope 1.0, mean of n = 5

glucose-dependent insulinotropic polypeptide [GIP]
cAMP (Emax) (GIPR S415I; HEK293, GIP(1–42) 1 pM–100 nM, 30 min 37 °C, mean of n = 6): 71 % of WT GIPR activity
logEC50 (cAMP) (GIPR S415I; HEK293, Hill slope 1.0, mean of n = 6): -11.2
cAMP (Emax) (GIPR R38L; HEK293, GIP(1–42) 1 pM–100 nM, 30 min 37 °C, mean of n = 4): 100 % of WT GIPR activity
logEC50 (cAMP) (GIPR R38L; HEK293, Hill slope 1.0, mean of n = 4): -10.9
cAMP (Emax) (GIPR E463Q; HEK293, GIP(1–42) 1 pM–100 nM, 30 min 37 °C, mean of n = 3): 95 % of WT GIPR activity
logEC50 (cAMP) (GIPR E463Q; HEK293, Hill slope 1.0, mean of n = 3): -11.2
cAMP (Emax) (GIPR I221M; HEK293, GIP(1–42) 1 pM–100 nM, 30 min 37 °C, mean of n = 5): 112 % of WT GIPR activity
logEC50 (cAMP) (GIPR I221M; HEK293, Hill slope 1.0, mean of n = 5): -10.5
logEC50 (Arrestin) (GIPR E288G; Hill slope 1.0): -9.1
Arrestin (Emax) (GIPR E288G; normalized to WT GIPR): 9
logEC50 (cAMP) (GIPR W90Lfs*17): -8.4
